As usually defined, the EC50 is the concentration needed to bring the measured effect to its halfway point.

The source of these data is US11299518B2, “Fusion respiratory syncytial virus inhibitors and use thereof” (priority 2016, dated 2022).

For one assay, the system named is RSV-mCherry. It counts as cell-based, HRSV. Conditions: HEp-2 cells, 0.2 MOI RSV-mCherry, 48 h. As to the method:
The inhibitory activity of the peptides of the invention was assessed in HEp-2 cells as described below:
A mCherry-expressing virus recently developed (Rameix-Welti et al., 2014, Nat. Commun., 5:5104) was used to avoid the cumbersome manipulations required with the GFP-expressing virus. Under these assay conditions peptides of the invention 4a, 4ca, 4bb and 4bb′ show clear higher activities as compared to comparative peptides T118, 4ef, 4bf (Table 5).
HEp-2 cells were seeded at 5×10^4 cells per well in 96 wells plate the day before the infection. Peptides were 2-fold serially diluted in DMSO (11 dilutions), then further diluted in MEM medium and pre-incubated for 15-20 minutes with 0.2 MOI of RSV-mCherry (Rameix-Welti et al., 2014, supra). Following the washing of Hep-2 cells with MEM without phenol red medium, the cells were incubated with the virus/peptide mixtures for a period of 1 h30-2 h. The cells were washed and further incubated in MEM media containing fetal bovine serum and the same concentration of peptide that was used during the infection step. Plates were incubated 48 h at 37° C. and the mCherry fluorescence was measured using a spectrofluorometer (Tecan infinite M200PRO) with excitation and emission wavelengths of 580 and 620 nm, respectively (expressed in relative fluorescence units RFU). Non-infected HEp-2 cells were used as standards for fluorescence background levels. Each experiment was performed in duplicate and repeated at least twice.

Assay [1] relates to recombinant green fluorescent protein (GFP)-expressing RSV virus (strain A2). The format is cell-based. Particulars: A549 cells, FACS, read-out: EC50, block of viral infection of cells. As to the method: The inhibitory activity of the peptides of the invention was assessed in a cellular viral fusion assay as compared to comparative peptides as follows. A549 cells were infected with a recombinant green fluorescent protein (GFP)-expressing RSV virus (strain A2) obtained as described below and in Hallak et al., 2000, Virology, 271:264-275, and the inhibitory activity of the peptides was quantified by flow cytometry.
Following rapid thawing of the frozen eGFP encoding RSV virus at […], the virus was vortexed for 2 min, and pipetted up and down to break aggregates. Serial 4-fold dilutions of inhibitors were prepared in glass tubes and mixed with a volume of virus required to achieve approximately 50% of infection in 200 μl of media containing 2% of FCS. The resulting mixture was added to 24-well plates containing A549 cells. Cells were incubated for 2 hours at 37° C., the media was replaced, and cells were incubated for an additional 24 hours. Cells were treated with 300 μl of trypsin for 10 min at 37° C., and the detached cells were diluted in 1 ml of culture medium. Following centrifugation at 1′700 rpm, the pellet was resuspended in 300 μl of PBS+1% SBF (V/V) and GFP positive cells were counted by FACS analysis.

In turn, `CC[C@H](C)[C@H](NC(=O)[C@H](CCCCN)NC(=O)[C@H](CCC(=O)O)NC(C)=O)C(=O)N[C@H]1CCCC=CCCC[C@@H](C(=O)N[C@@H](Cc2ccccc2)C(=O)N[C@H](C(=O)N[C@H]2CCCC=CCCC[C@@H](C(=O)N[C@@H](CC(C)C)C(=O)N[C@@H](CC(C)C)C(=O)N[C@@H](Cc3c[nH]cn3)C(=O)N[C@@H](CC(N)=O)C(=O)N[C@H](C(N)=O)C(C)C)NC(=O)[C@H](CC(=O)O)NC(=O)[C@H](CO)NC(=O)[C@H](CCCCN)NC2=O)[C@@H](C)CC)NC(=O)[C@H](CC(C)C)NC(=O)[C@H](CO)NC(=O)[C@H](CCC(N)=O)NC1=O` [4bb′] gave a 50% effective concentration (EC50) in the assay on RSV-mCherry of 0.99 µM.

As for `CC[C@H](C)[C@H](NC(=O)[C@H](CCCCN)NC(=O)[C@H](CCC(=O)O)NC(C)=O)C(=O)N[C@@H](CC(N)=O)C(=O)N[C@@H](CCC(N)=O)C(=O)N[C@@H](CO)C(=O)N[C@@H](CC(C)C)C(=O)N[C@@]1(C)CCCC=CCCC[C@@](C)(C(=O)N[C@@H](CO)C(=O)N[C@@H](CC(=O)O)C(=O)N[C@@]2(C)CCCC=CCCC[C@@](C)(C(=O)N[C@H](C(N)=O)C(C)C)NC(=O)[C@H](Cc3c[nH]cn3)NC(=O)[C@H](CC(C)C)NC(=O)[C@H](CC(C)C)NC2=O)NC(=O)[C@H](CCCNC(=N)N)NC(=O)[C@H]([C@@H](C)CC)NC(=O)[C@H](Cc2ccccc2)NC1=O` [Peptide 4a, EKINQSL Xaa8 FIR Xaa12 SD Xaa15 LLH Xaa19 V], the EC50 in assay [1] amounted to 10600 nM.

On to `CC[C@H](C)[C@H](NC(=O)[C@H](CCCCN)NC(=O)[C@H](CCC(=O)O)NC(C)=O)C(=O)N[C@@]1(C)CCCC=CCCC[C@@](C)(C(=O)N[C@@H](Cc2ccccc2)C(=O)N[C@H](C(=O)N[C@@]2(C)CCCC=CCCC[C@@](C)(C(=O)N[C@@H](CC(C)C)C(=O)N[C@@H](CC(C)C)C(=O)N[C@@H](Cc3c[nH]cn3)C(=O)N[C@@H](CC(N)=O)C(=O)N[C@H](C(N)=O)C(C)C)NC(=O)[C@H](CC(=O)O)NC(=O)[C@H](CO)NC(=O)[C@H](CCCCN)NC2=O)[C@@H](C)CC)NC(=O)[C@H](CC(C)C)NC(=O)[C@H](CO)NC(=O)[C@H](CCC(N)=O)NC1=O` [Peptide 4bb, EKI Xaa4 QSL Xaa8 FI Xaa11 KSD Xaa15 LLHNV], for which the half-maximal effective concentration (EC50) in assay [1] worked out at 2270 nM; with RSV-mCherry, 0.74 ± 0.27 µM.

Take `CC[C@H](C)[C@@H]1NC(=O)[C@H](Cc2ccccc2)NC(=O)[C@@H](NC(=O)[C@H](CC(C)C)NC(=O)[C@H](CO)NC(=O)[C@@H]2CCCC=CCCC[C@@](C)(NC(=O)[C@H](CCC(=O)O)NC(C)=O)C(=O)N[C@@H]([C@@H](C)CC)C(=O)N[C@@H](CC(N)=O)C(=O)N2)CCCC=CCCC[C@@H](C(=O)N[C@@H](CO)C(=O)N[C@@H](CC(=O)O)C(=O)N[C@@H](CCC(=O)O)C(=O)N[C@@H](CC(C)C)C(=O)N[C@@H](CC(C)C)C(=O)N[C@@H](Cc2c[nH]cn2)C(=O)N[C@@H](CC(N)=O)C(=O)N[C@H](C(N)=O)C(C)C)NC(=O)[C@H](CCCNC(=N)N)NC1=O` [Peptide 4ca2]: in the assay with RSV-mCherry, the EC50 was determined as 0.33 ± 0.05 µM.

On to `CC[C@H](C)[C@@H]1NC(=O)[C@H](Cc2ccccc2)NC(=O)[C@@](C)(NC(=O)[C@H](CC(C)(C)C)NC(=O)[C@H](CO)NC(=O)[C@]2(C)CCCC=CCCC[C@@](C)(NC(=O)[C@H](CCC(=O)O)NC(C)=O)C(=O)N[C@@H]([C@@H](C)CC)C(=O)N[C@@H](CC(N)=O)C(=O)N2)CCCC=CCCC[C@@](C)(C(=O)N[C@@H](CO)C(=O)N[C@@H](CC(=O)O)C(=O)N[C@@H](CCC(=O)O)C(=O)N[C@@H](CC(C)C)C(=O)N[C@@H](CC(C)C)C(=O)N[C@@H](Cc2c[nH]cn2)C(=O)N[C@@H](CC(N)=O)C(=O)N[C@H](C(N)=O)C(C)C)NC(=O)[C@H](CCCNC(=N)N)NC1=O` [Peptide 4ca-var1], for which the response in the assay on RSV-mCherry was half-maximal at 1.36 ± 0.19 µM (EC50).

With `CC[C@H](C)[C@@H]1NC(=O)[C@H](Cc2ccccc2)NC(=O)[C@@](C)(NC(=O)[C@@H](NC(=O)[C@H](CO)NC(=O)[C@]2(C)CCCC=CCCC[C@@](C)(NC(=O)[C@H](CCC(=O)O)NC(C)=O)C(=O)N[C@@H]([C@@H](C)CC)C(=O)N[C@@H](CC(N)=O)C(=O)N2)C2CCCC2)CCCC=CCCC[C@@](C)(C(=O)N[C@@H](CO)C(=O)N[C@@H](CC(=O)O)C(=O)N[C@@H](CCC(=O)O)C(=O)N[C@@H](CC(C)C)C(=O)N[C@@H](CC(C)C)C(=O)N[C@@H](Cc2c[nH]cn2)C(=O)N[C@@H](CC(N)=O)C(=O)N[C@H](C(N)=O)C(C)C)NC(=O)[C@H](CCCNC(=N)N)NC1=O` [Peptide 4ca-var2], the EC50 in the assay on RSV-mCherry turned out to be 1.49 ± 0.14 µM.

Compound `CC[C@H](C)[C@@H]1NC(=O)[C@H](Cc2ccccc2)NC(=O)[C@@](C)(NC(=O)[C@@H](NC(=O)[C@H](CO)NC(=O)[C@]2(C)CCCC=CCCC[C@@](C)(NC(=O)[C@H](CCC(=O)O)NC(C)=O)C(=O)N[C@@H]([C@@H](C)CC)C(=O)N[C@@H](CC(N)=O)C(=O)N2)C2CCCCC2)CCCC=CCCC[C@@](C)(C(=O)N[C@@H](CO)C(=O)N[C@@H](CC(=O)O)C(=O)N[C@@H](CCC(=O)O)C(=O)N[C@@H](CC(C)C)C(=O)N[C@@H](CC(C)C)C(=O)N[C@@H](Cc2c[nH]cn2)C(=O)N[C@@H](CC(N)=O)C(=O)N[C@H](C(N)=O)C(C)C)NC(=O)[C@H](CCCNC(=N)N)NC1=O` [Peptide 4ca-var3] came in with an EC50 in the assay with RSV-mCherry of 0.77 ± 0.08 µM.

For the compound `CC[C@H](C)[C@@H]1NC(=O)[C@H](Cc2ccccc2)NC(=O)[C@@](C)(NC(=O)[C@H](CC(C)C)NC(=O)[C@H](CO)NC(=O)[C@]2(C)CCCC=CCCC[C@@](C)(NC(=O)[C@H](CCC(=O)O)NC(C)=O)C(=O)N[C@@H]([C@@H](C)CC)C(=O)N[C@@H](CC(N)=O)C(=O)N2)CCCC=CCCC[C@@](C)(C(=O)N[C@@H](CO)C(=O)N[C@@H](CC(=O)O)C(=O)N[C@@H](CCC(=O)O)C(=O)N[C@@H](CC2CCCCC2)C(=O)N[C@@H](CC(C)C)C(=O)N[C@@H](Cc2c[nH]cn2)C(=O)N[C@@H](CC(N)=O)C(=O)N[C@H](C(N)=O)C(C)C)NC(=O)[C@H](CCCNC(=N)N)NC1=O` [Peptide 4ca-var7, E Xaa2 IN Xaa5 SL Xaa8 FIR Xaa12 SDE Xaa16LHNV], the EC50 in the assay on RSV-mCherry came out at 0.231 ± 0.03 µM.

Consider `CC[C@H](C)[C@@H]1NC(=O)[C@H](Cc2ccccc2)NC(=O)[C@@](C)(NC(=O)[C@H](CC(C)C)NC(=O)[C@H](CO)NC(=O)[C@]2(C)CCCC=CCCC[C@@](C)(NC(=O)[C@H](CCC(=O)O)NC(C)=O)C(=O)N[C@@H]([C@@H](C)CC)C(=O)N[C@@H](CC(N)=O)C(=O)N2)CCCC=CCCC[C@@](C)(C(=O)N[C@@H](CO)C(=O)N[C@@H](CC(=O)O)C(=O)N[C@@H](CCC(=O)O)C(=O)N[C@@H](CC(C)C)C(=O)N[C@@H](CC(C)C)C(=O)N[C@@H](Cc2c[nH]cn2)C(=O)N[C@@H](CC(N)=O)C(=O)N[C@H](C(N)=O)C(C)C)NC(=O)[C@H](CCCNC(=N)N)NC1=O` [Peptide 4ca], for which the EC50 came to 4080 nM in assay [1] and 0.59 ± 0.13 µM in the assay with RSV-mCherry.
